PubChem BioAssay AID782 (Emory University Molecular Libraries Screening Center, 2007)
Only a part is listed here, and it is no random draw. Some tests of the compounds listed are not included; inactive here does not mean inactive elsewhere. Activity calls are given as the source filed them.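 How the source made its calls: active means inhibition above about 30% (limit read from the data); inactive means the rest.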

The chains behind the UniProt entries cited, without tags or fusion partners.
UniProt P63073, whole entry, looked up: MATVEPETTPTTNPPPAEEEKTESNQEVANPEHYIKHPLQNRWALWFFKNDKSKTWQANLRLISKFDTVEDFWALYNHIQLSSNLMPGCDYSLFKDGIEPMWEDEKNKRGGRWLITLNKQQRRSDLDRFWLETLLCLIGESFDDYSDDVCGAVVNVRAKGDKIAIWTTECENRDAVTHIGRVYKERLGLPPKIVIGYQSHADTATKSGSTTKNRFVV
UniProt Q04637, whole entry, looked up: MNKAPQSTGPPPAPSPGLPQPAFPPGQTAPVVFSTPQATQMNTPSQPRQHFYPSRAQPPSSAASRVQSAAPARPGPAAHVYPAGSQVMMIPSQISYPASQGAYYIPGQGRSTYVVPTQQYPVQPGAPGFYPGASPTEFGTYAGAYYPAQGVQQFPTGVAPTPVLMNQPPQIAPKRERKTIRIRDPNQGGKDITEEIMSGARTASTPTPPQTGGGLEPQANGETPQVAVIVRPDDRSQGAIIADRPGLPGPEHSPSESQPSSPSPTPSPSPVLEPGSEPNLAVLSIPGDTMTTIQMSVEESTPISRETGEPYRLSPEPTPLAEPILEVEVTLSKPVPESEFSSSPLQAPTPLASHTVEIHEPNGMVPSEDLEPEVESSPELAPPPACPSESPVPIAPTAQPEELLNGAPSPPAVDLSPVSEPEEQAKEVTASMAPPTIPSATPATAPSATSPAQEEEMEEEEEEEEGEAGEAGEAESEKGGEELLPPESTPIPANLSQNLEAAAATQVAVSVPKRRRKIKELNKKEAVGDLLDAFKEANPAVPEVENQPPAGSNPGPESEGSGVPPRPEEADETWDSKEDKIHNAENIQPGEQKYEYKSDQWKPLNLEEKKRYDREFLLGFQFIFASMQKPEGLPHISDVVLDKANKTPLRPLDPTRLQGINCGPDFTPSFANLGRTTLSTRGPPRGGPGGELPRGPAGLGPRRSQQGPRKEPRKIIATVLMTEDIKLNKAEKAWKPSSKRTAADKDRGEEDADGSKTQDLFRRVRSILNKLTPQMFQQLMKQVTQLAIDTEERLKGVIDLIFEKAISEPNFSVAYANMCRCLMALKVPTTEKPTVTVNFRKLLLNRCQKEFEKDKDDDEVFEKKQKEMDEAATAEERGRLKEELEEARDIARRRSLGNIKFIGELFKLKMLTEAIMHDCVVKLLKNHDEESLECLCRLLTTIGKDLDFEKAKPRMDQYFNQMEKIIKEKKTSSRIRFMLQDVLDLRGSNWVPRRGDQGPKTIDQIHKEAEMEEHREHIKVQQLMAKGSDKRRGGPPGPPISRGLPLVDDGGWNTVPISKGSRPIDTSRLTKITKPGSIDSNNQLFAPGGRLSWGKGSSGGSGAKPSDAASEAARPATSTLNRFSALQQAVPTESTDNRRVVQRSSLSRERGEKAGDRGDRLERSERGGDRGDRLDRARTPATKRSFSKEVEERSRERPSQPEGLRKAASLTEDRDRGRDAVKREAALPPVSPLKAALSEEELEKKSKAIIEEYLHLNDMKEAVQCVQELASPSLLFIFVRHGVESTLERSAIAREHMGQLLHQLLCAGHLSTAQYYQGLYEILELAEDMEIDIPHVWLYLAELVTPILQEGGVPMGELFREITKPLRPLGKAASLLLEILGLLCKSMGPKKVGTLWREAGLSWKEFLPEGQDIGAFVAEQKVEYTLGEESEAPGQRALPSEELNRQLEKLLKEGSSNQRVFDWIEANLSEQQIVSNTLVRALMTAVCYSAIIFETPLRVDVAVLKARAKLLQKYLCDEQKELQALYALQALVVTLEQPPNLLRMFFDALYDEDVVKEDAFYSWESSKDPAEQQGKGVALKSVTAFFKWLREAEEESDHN

Target: Eukaryotic translation initiation factor 4E (Mus musculus) + Eukaryotic translation initiation factor 4 gamma 1 (Homo sapiens) (UniProt P63073+Q04637)
Assay: eIF4E–eIF4G protein interaction inhibitors, primary screen, biochemical, uHTS, TR-FRET, eIF4GI fragment (AID 782);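 further: 0% = full FRET control wells and 100% = background wells lacking eIF4GI fragment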
Details: TR-FRET eIF4E-eIF4GI(517-606) binding, 2 h; at 21.7 µM; stronger effect = higher value

**Q.** For COc1cccc(C(=O)NCC2(N3CCCCC3)CCCCC2)c1, which inhibition is on record?
**A.** Its inhibition is inactive: 2.82%.

**Q.** COc1ccc(Br)c(C(=O)NCC2(N3CCCCC3)CCCCC2)c1 was tested. Which inhibition did it give?
**A.** Its inhibition is inactive: -0.51%.

**Q.** With CN(C)c1cccc(C(=O)NCC2(N(C)C)CCCCC2)c1 as the compound, how does the inhibition read?
**A.** Its inhibition is inactive: -1.07%.

**Q.** For O=C(OC1CN2CCC1CC2)C(CO)(c1ccccc1)c1ccccc1 (stereo unspecified), which inhibition is on record?
**A.** The inhibition was inactive: -2.72%.

**Q.** For CC(C)N1C(=O)CC2(CCN(CCOC(=O)C(O)(c3ccccc3)c3ccccc3)CC2)C1=O, which inhibition is on record?
**A.** The inhibition was inactive: 0.48%.

**Q.** CCN(CC)CC(C)C(C)OC(=O)C(O)(c1ccccc1)c1ccccc1 (stereo unspecified) was tested. Which inhibition did it give?
**A.** Its inhibition is inactive: 1.62%.

**Q.** Which inhibition does the source give for O=C(NCC1(N2CCCCC2)CCCCC1)c1cc([N+](=O)[O-])ccc1Cl here?
**A.** Its inhibition is inactive: 1.7%.

**Q.** Which inhibition does the source give for C=CCN1CCN(CCOC(=O)C(O)(c2ccccc2)c2ccccc2)CC1 here?
**A.** Its inhibition is inactive: 3.8%.

**Q.** CCN1CCCC(OC(=O)C2(O)c3ccccc3C=Cc3ccccc32)C1 (stereo unspecified) was tested. Which inhibition did it give?
**A.** The inhibition was inactive: -2.79%.

**Q.** With CN(C)C1CCCC1OC(=O)C(O)(c1ccccc1)c1ccccc1 (stereo unspecified) as the compound, how does the inhibition read?
**A.** The inhibition was inactive: -0.36%.

**Q.** Cc1ccccc1C(=O)NCC1(N2CCCCC2)CCCCC1 was tested. Which inhibition did it give?
**A.** Its inhibition is inactive: -2.21%.
